Assay results reported in article PMC3577813.

Legend:
[1] = molecular target: human α4β2 nicotinic acetylcholine receptor (human) (UniProt P43681)
[2] = molecular target: human α4β2 nicotinic acetylcholine receptor (human) (UniProt P43681); remark: listed apart in the source
[3] = molecular target: human α4β4 nicotinic acetylcholine receptor (human) (UniProt P43681)
[4] = molecular target: human α4β2 nicotinic acetylcholine receptor (human) (UniProt P43681); remark: listed apart in the source
[5] = molecular target: human α7 nicotinic acetylcholine receptor (human) (UniProt P36544)
[6] = molecular target: human α4β2 nicotinic acetylcholine receptor (human) (UniProt P43681); remark: listed apart in the source

“large oligomeric α-synuclein (>4 nm) (from UniProt P37840 1-140) (natural protein)” gave a normalized peak amplitude of the nicotinic response after 10 min exposure to large oligomeric α-synuclein [1] of 63.5%, a peak current after 10 min in 10 nM large oligomeric α-synuclein without repetitive nicotine challenges [2] of 67.5% and a peak current with repeated nicotine application (2 min interval) in 10 nM large oligomeric α-synuclein for 10 min [2] of 70.8%. The peak amplitude of the hα4β4-nAChR-mediated current (3 µM nicotine) with 10 nM large oligomeric α-synuclein (not significant) [3] was 96.5%, the peak amplitude of the hα4β2-nAChR-mediated current (3 µM nicotine) with 10 nM large oligomeric α-synuclein [4] was 62.9% and the peak amplitude of the hα7-nAChR-mediated current (3 mM choline) with 10 nM large oligomeric α-synuclein (not significant) [5] was 93.1%.

For “monomeric α-synuclein (from UniProt P37840 1-140) (natural protein)”, the normalized peak amplitude of the nicotinic response after 10 min exposure to monomeric α-synuclein from size exclusion (not significant) [1] was 92.5%.

In the case of “oligomeric α-synuclein (from UniProt P37840 1-140) (natural protein)”, the ACh-induced peak whole-cell current with 10 nM oligomeric α-synuclein [6] is reported as 81.5 % of control, the ACh-induced steady-state whole-cell current with 10 nM oligomeric α-synuclein [6] is reported as 78.3 % of control and the nicotine-induced peak current, 10 nM oligomeric α-synuclein co-applied with nicotine without pretreatment (no significant inhibition) [6] is reported as 93.7%. For the same substance, the peak whole-cell current induced by 3 µM nicotine after 2 min pretreatment with 10 nM oligomeric α-synuclein, patch clamp on SH-EP1 cells [6] was 77.9 % of control and the steady-state whole-cell current induced by 3 µM nicotine after 2 min pretreatment with 10 nM oligomeric α-synuclein [6] was 82.8 % of control.

Work on “small oligomeric α-synuclein (1–4 nm) (from UniProt P37840 1-140) (natural protein)” yielded a normalized peak amplitude of the nicotinic response after 10 min exposure to small oligomeric α-synuclein (not significant) [1] of 93.2%.
